Assay results as given in patent publication US20160022760A1, “METHODS OF TREATING CELIAC DISEASE WITH LARAZOTIDE” (priority 2014, published 2016).
Where no end group is shown, it is not given here.

How the values were obtained:
[1] = test system: subjects with celiac disease; conditions: in vivo
[2] = test system: subjects with celiac disease; experiment: Phase IIb study: twelve-lead electrocardiograms; assay type: in vivo, human
From the text: Twelve-lead ECGs were obtained at screening and at Visit 6 or early termination (Table 2).
For continuous variables, changes from baseline to each time point were summarized with the number of nonmissing values, mean, standard deviation, median, and minimum and maximum values. For categorical variables, subject counts and percentages were provided. Results of ECGs were classified as normal; abnormal, not clinically significant, and abnormal, clinically significant, as specified on the ECG page of the eCRF. Summaries were presented by treatment group.

[3] = test system: subjects with celiac disease; experiment: Phase IIb study: clinical laboratory values (hematology, chemistry)
[4] = 0.5 mg TID, N = 85, treatment period, Safety Population
[5] = 0.5 mg TID, end of treatment, Safety Population
[6] = 1 mg TID, N = 84, treatment period, Safety Population

GGVLVQPG (SEQ ID NO:1) [Larazotide acetate]
Deaths in the study, in words [1]: No subjects died | Incidence of constipation (treatment-emergent) [1]: 5.9% | Incidence of gastro-oesophageal reflux disease (treatment-emergent) [1]: 3.5% | Incidence of gastrointestinal disorders (treatment-emergent) [1]: 29.3% | Incidence of headache (treatment-emergent) [1]: 5.1% | Incidence of infections and infestations (treatment-emergent) [1]: 25.0% | Incidence of nausea (treatment-emergent) [1]: 7.0% | Incidence of serious adverse events [1]: 0.8% | Incidence of severe treatment-emergent adverse events [1]: 4.3% | Incidence of treatment-emergent adverse events leading to withdrawal from the study [1]: 4.7% | Incidence of upper respiratory tract infection (treatment-emergent) [1]: 2.3% | Incidence of vomiting (treatment-emergent) [1]: 2.7% | Number of subjects with treatment-emergent serious adverse events [1]: 2 subjects | Relationship of treatment-emergent serious adverse events to study drug, in words [1]: none was considered by the Investigator to be related to study drug | TEAE that led to withdrawal: Serious [1]: No | Tolerability and safety profile, in words [1]: well tolerated | Subjects with clinically significant abnormal ECG finding ([2]; 2 mg group, Study Day 93, placebo run-out phase, possibly due to hypertension): One subject | ECGs at screening and end of treatment, in words ([2]; all treatment groups): None of the ECGs performed at screening and the end of treatment were considered clinically significant | PCS abnormal ALT (≧3 × ULN), subjects n [3, 4]: 0 | PCS abnormal AST (≧3 × ULN), subjects % [3, 4]: (1.2) % | PCS abnormal AST (≧3 × ULN), subjects n [3, 4]: 1 | PCS abnormal Alkaline phosphatase (≧3 × ULN), subjects % [3, 4]: (1.2) % | PCS abnormal Alkaline phosphatase (≧3 × ULN), subjects n [3, 4]: 1 | PCS abnormal Ferritin serum (≦0.75 × LLN), subjects % [3, 4]: (15.3) % | PCS abnormal Ferritin serum (≦0.75 × LLN), subjects n [3, 4]: 13 | PCS abnormal Glucose random (≦0.75 × LLN), subjects n [3, 4]: 0 | PCS abnormal Hematocrit (≦0.75 × LLN), subjects n [3, 4]: 0 | PCS abnormal Hemoglobin (≦0.75 × LLN), subjects n [3, 4]: 0 | PCS abnormal Lymphocytes (≦0.75 × LLN or ≧1.5 × ULN), subjects % [3, 4]: (1.2) % | PCS abnormal Lymphocytes (≦0.75 × LLN or ≧1.5 × ULN), subjects n [3, 4]: 1 | PCS abnormal Neutrophils (≦0.75 × LLN or ≧1.5 × ULN), subjects % [3, 4]: (2.4) % | PCS abnormal Neutrophils (≦0.75 × LLN or ≧1.5 × ULN), subjects n [3, 4]: 2 | PCS abnormal White blood cells (≦0.75 × LLN or ≧1.5 × ULN), subjects n [3, 4]: 0 | Subjects with at least 1 PCS abnormal test, % [3, 4]: (17.6) % | ALT, Mean Change From Baseline to End of Treatment ([3]; 0.5 mg TID, Safety Population): −0.8 IU/L | AST, Mean Change From Baseline to End of Treatment ([3]; 0.5 mg TID, Safety Population): −1.5 IU/L | Albumin, Mean Change From Baseline to End of Treatment ([3]; 0.5 mg TID, Safety Population): 0.0 g/dL | Alkaline phosphatase, Mean Change From Baseline to End of Treatment ([3]; 0.5 mg TID, Safety Population): −3.0 IU/L | BUN, Mean Change From Baseline to End of Treatment ([3]; 0.5 mg TID, Safety Population): 0.2 mg/dL | Basophils, Mean Change From Baseline to End of Treatment ([3]; 0.5 mg TID, Safety Population): 0.1% | Calcium, Mean Change From Baseline to End of Treatment ([3]; 0.5 mg TID, Safety Population): -0.1 mg/dL | Chloride, Mean Change From Baseline to End of Treatment ([3]; 0.5 mg TID, Safety Population): -0.1 mmol/L | Creatinine, Mean Change From Baseline to End of Treatment ([3]; 0.5 mg TID, Safety Population): -0.0 mg/dL | Eosinophils, Mean Change From Baseline to End of Treatment ([3]; 0.5 mg TID, Safety Population): −0.1% | Glucose (random), Mean Change From Baseline to End of Treatment ([3]; 0.5 mg TID, Safety Population): 2.4 mg/dL | Hematocrit, Mean Change From Baseline to End of Treatment ([3]; 0.5 mg TID, Safety Population): 0.1% | Hemoglobin, Mean Change From Baseline to End of Treatment ([3]; 0.5 mg TID, Safety Population): 0 g/dL | Lymphocytes, Mean Change From Baseline to End of Treatment ([3]; 0.5 mg TID, Safety Population): −0.2% | Monocytes, Mean Change From Baseline to End of Treatment ([3]; 0.5 mg TID, Safety Population): −0.1% | Neutrophils, Mean Change From Baseline to End of Treatment ([3]; 0.5 mg TID, Safety Population): 0.3% | Platelet count, Mean Change From Baseline to End of Treatment ([3]; 0.5 mg TID, Safety Population): 2.2 K/μL | Potassium, Mean Change From Baseline to End of Treatment ([3]; 0.5 mg TID, Safety Population): -0.1 mmol/L | Sodium, Mean Change From Baseline to End of Treatment ([3]; 0.5 mg TID, Safety Population): -0.1 mmol/L | Total bilirubin, Mean Change From Baseline to End of Treatment ([3]; 0.5 mg TID, Safety Population): -0.0 mg/dL | White blood cells, Mean Change From Baseline to End of Treatment ([3]; 0.5 mg TID, Safety Population): 0.1 K/μL | ALT, Mean Value [3, 5]: 22.7 IU/L | AST, Mean Value [3, 5]: 23.7 IU/L | Albumin, Mean Value [3, 5]: 4.1 g/dL | Alkaline phosphatase, Mean Value [3, 5]: 63.1 IU/L | BUN, Mean Value [3, 5]: 12.1 mg/dL | Basophils, Mean Value [3, 5]: 0.4% | Calcium, Mean Value [3, 5]: 9.4 mg/dL | Chloride, Mean Value [3, 5]: 104.7 mmol/L | Creatinine, Mean Value [3, 5]: 0.8 mg/dL | Eosinophils, Mean Value [3, 5]: 2.7% | Glucose (random), Mean Value [3, 5]: 93.2 mg/dL | Hematocrit, Mean Value [3, 5]: 40% | Hemoglobin, Mean Value [3, 5]: 13.4 g/dL | Lymphocytes, Mean Value [3, 5]: 29.2% | Monocytes, Mean Value [3, 5]: 6.9% | Neutrophils, Mean Value [3, 5]: 61% | Platelet count, Mean Value [3, 5]: 244 K/μL | Potassium, Mean Value [3, 5]: 4.1 mmol/L | Sodium, Mean Value [3, 5]: 138.3 mmol/L | Total bilirubin, Mean Value [3, 5]: 0.6 mg/dL | White blood cells, Mean Value [3, 5]: 5.9 K/μL | Proportion of subjects who developed potentially clinically significant abnormal laboratory values during the treatment period ([3]; 1 mg TID): 22.6% | PCS abnormal ALT (≧3 × ULN), subjects n [3, 6]: 0 | PCS abnormal AST (≧3 × ULN), subjects n [3, 6]: 0 | PCS abnormal Alkaline phosphatase (≧3 × ULN), subjects n [3, 6]: 0 | PCS abnormal Ferritin serum (≦0.75 × LLN), subjects % [3, 6]: (14.3) % | PCS abnormal Ferritin serum (≦0.75 × LLN), subjects n [3, 6]: 12 | PCS abnormal Glucose random (≦0.75 × LLN), subjects n [3, 6]: 0 | PCS abnormal Hematocrit (≦0.75 × LLN), subjects n [3, 6]: 0 | PCS abnormal Hemoglobin (≦0.75 × LLN), subjects n [3, 6]: 0 | PCS abnormal Lymphocytes (≦0.75 × LLN or ≧1.5 × ULN), subjects % [3, 6]: (6.0) % | PCS abnormal Lymphocytes (≦0.75 × LLN or ≧1.5 × ULN), subjects n [3, 6]: 5 | PCS abnormal Neutrophils (≦0.75 × LLN or ≧1.5 × ULN), subjects % [3, 6]: (2.4) % | PCS abnormal Neutrophils (≦0.75 × LLN or ≧1.5 × ULN), subjects n [3, 6]: 2 | PCS abnormal White blood cells (≦0.75 × LLN or ≧1.5 × ULN), subjects n [3, 6]: 0 | Subjects with at least 1 PCS abnormal test, % [3, 6]: (22.6) % | ALT, Mean Change From Baseline to End of Treatment ([3]; 1 mg TID, Safety Population): 0.8 IU/L | AST, Mean Change From Baseline to End of Treatment ([3]; 1 mg TID, Safety Population): −0.5 IU/L | Albumin, Mean Change From Baseline to End of Treatment ([3]; 1 mg TID, Safety Population): 0.0 g/dL | Alkaline phosphatase, Mean Change From Baseline to End of Treatment ([3]; 1 mg TID, Safety Population): 2.5 IU/L | BUN, Mean Change From Baseline to End of Treatment ([3]; 1 mg TID, Safety Population): 0.3 mg/dL | Basophils, Mean Change From Baseline to End of Treatment ([3]; 1 mg TID, Safety Population): −0.1%
